This is a selection; strong and weak results do not stand in their true shares. Active and inactive are the calls of the source.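 How the source made its calls: active means GFP response relative to DMSO above a set limit, near screen average plus 3 SD (cut at about 150% in these data); inconclusive means fewer than 70 cells counted for the yeast strain; inactive means the rest.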
Test: modulators of AGP1-GFP expression in yeast TOR pathway, primary screen, cell-based, multiplex flow cytometry, S. cerevisiae, MLPCN library (AID 2066);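 further: median GFP channel fluorescence of the gated AGP1 strain per well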
Conditions: 3 h, at 10 µM, active compounds read high, GFP as percent of DMSO wells

| SMILES | GFP response vs DMSO |
| --- | --- |
| COc1ccc2nc(NP(=O)(c3ccccc3)c3ccccc3)sc2c1 | inactive: 104% |
| COc1ccc(N/C(=N/P(=O)(N2CCOCC2)N2CCOCC2)N2CCOCC2)cc1 | inactive: 105% |
| COc1cc(C(=O)NCC2(N3CCOCC3)CCCCC2)ccc1OCC(C)C | inactive: 99.7% |
| C[As](=O)(O)c1cccc(C(=O)O)c1 | inactive: 102% |
| O=[As](O)(c1ccc(O)cc1)c1ccccc1O | inactive: 104% |
| Cc1ccc(OP(=O)(Nc2ccc([N+](=O)[O-])cn2)Oc2ccc(C)cc2)cc1 | inactive: 99.9% |
| Cc1ccc2nc3c(c(C)c2c1)CC(C(Cl)Cl)S3 (stereo unspecified) | inactive: 97.7% |
| ClCCSc1nnc(-c2cccnc2)o1 | inactive: 93.2% |
| CC(C)c1ccc(OP(=O)(Nc2ccccn2)Oc2ccccc2F)cc1 (stereo unspecified) | inactive: 100% |
| O=[N+]([O-])c1cc([N+](=O)[O-])c(-c2ccn[nH]2)s1 | inactive: 95.2% |
| CCN(CC)C(=S)SC(NC=O)C(Cl)(Cl)Cl (stereo unspecified) | inactive: 103% |
| CC(C)NC(=O)NP(=O)(Oc1ccccc1)Oc1ccccc1 | inactive: 101% |
| CCOC(=O)Nc1ccc([As](=O)(O)O)c(O)c1 | inactive: 97.9% |
| Cc1cc(SC(NC(=O)c2ccccc2)C(Cl)(Cl)Cl)nc(C(C)C)n1 (stereo unspecified) | inactive: 91% |
| CCOC(=O)Nc1cccc([As](=O)(O)O)c1 | inactive: 101% |
| O=P(Nc1ccccn1)(c1cccc2ccccc12)c1cccc2ccccc12 | inactive: 84.2% |
| Cc1cc(SC(NC=O)C(Cl)(Cl)Cl)ncn1 (stereo unspecified) | inactive: 101% |
| O=[N+]([O-])c1ccc(Nc2ccc(Oc3ccc([N+](=O)[O-])cc3[N+](=O)[O-])cc2)c([N+](=O)[O-])c1 | inactive: 98.9% |
| COP1(=S)c2c(C)nn(CCC#N)c2N=C(c2ccc(F)cc2)N1C (stereo unspecified) | inactive: 111% |
| O=C(Nc1ccncc1[N+](=O)[O-])c1ccc([N+](=O)[O-])cc1[N+](=O)[O-] | inactive: 105% |
| O=C(COc1ccccc1)OC1CN2CCC1CC2 (stereo unspecified) | inactive: 94.4% |
| O=C(OC1CN2CCC1CC2)c1cccc([N+](=O)[O-])c1 (stereo unspecified) | inactive: 98.8% |
| CCOC(=O)c1ccc(NC(=O)C(C)(CCl)SC)cc1 (stereo unspecified) | inactive: 101% |
| CCC(C)N(CC(C)C)C(=S)SC(NC(C)=O)C(Cl)(Cl)Cl (stereo unspecified) | inactive: 95.8% |
| COc1ccc(C2=NCC(CBr)S2)cc1 (stereo unspecified) | inactive: 107% |
| CCc1nc2c(n1)c1c(non1O)c1c2no[n+]1[O-] | inactive: 109% |

| SMILES | GFP response vs DMSO |
| --- | --- |
| O=[N+]([O-])c1cc([N+](=O)[O-])c(CCNc2ccccc2)c([N+](=O)[O-])c1 | inactive: 95.7% |
| Cc1ccc(NP(=O)(Oc2ccccc2)Oc2ccccc2)nc1 | inactive: 89.5% |
| O=[N+]([O-])c1cccc2n[nH]nc12 | inactive: 102% |
| CC(=O)N1C2C3N(C(C)=O)C1C1N(C(C)=O)C(C(N1C(C)=O)N3C(C)=O)N2C(C)=O | inactive: 103% |
| CCN(/C(=N/P(=O)(N1CCOCC1)N1CCOCC1)N1CCOCC1)c1ccc(OC)cc1 | inactive: 94.2% |
| C[N+]1=C2C=CC=CC=C2SC12C([N+](=O)[O-])=CC([N+](=O)[O-])=C[C-]2[N+](=O)[O-] (stereo unspecified) | inactive: 99.5% |
| Nc1ccc([As](=O)(O)c2ccc(N)cc2)cc1 | inactive: 110% |
| CC1CCN(C(=O)Oc2c(Cl)cc(Cl)c3cccnc23)CC1 | inactive: 102% |
| CN(C)C(=O)OCCc1n(C)cc[n+]1C | inactive: 101% |
| CC(C)=N/N=C(\N)N[N+](=O)[O-] | inactive: 105% |
| O=C(Nc1cc([As](=O)(O)O)ccc1O)c1ccccc1 | inactive: 78.5% |
| O=[N+]([O-])c1ncn(CCn2ncnc2[N+](=O)[O-])n1 | inactive: 97.1% |
| CC(C)(C)C(=O)NC(Sc1ccncn1)C(Cl)(Cl)Cl (stereo unspecified) | inactive: 93.2% |
| O=C(O)CNc1ccc([As](=O)(O)O)cc1 | inactive: 96.1% |
| O=[N+]([O-])c1cccc(NC2=NCC(CBr)S2)c1 (stereo unspecified) | inactive: 110% |
| O=P(Nc1nc2ccc(Cl)cc2s1)(c1ccccc1)c1ccccc1 | inactive: 99.8% |
| O=C(O)c1ccccc1[As](=O)(O)O | inactive: 94% |
| CC(=O)Nc1ccc([As](=O)(O)O)cc1 | inactive: 96.4% |
| CN(C(=O)Cc1ccc(Cl)c(Cl)c1)[C@H]1CCCC[C@@H]1N1CCCC1 | inactive: 96.8% |
| CCOP(=O)(Nc1ccccc1)OCC | inactive: 97.9% |
| Cc1cc(SC(NC(=O)c2ccc(F)cc2)C(Cl)(Cl)Cl)ncn1 (stereo unspecified) | inactive: 98.8% |
| O=[N+]([O-])c1cc([N+](=O)[O-])c(CCN2CCOCC2)c([N+](=O)[O-])c1 | inactive: 100% |
| Nc1cccc2ccc([As](=O)(O)O)cc12 | inactive: 95.9% |
| CCN(N=Nc1nonc1N)c1nonc1N | inactive: 99.4% |
| Cc1ccc(N/C(=N/P(=O)(N2CCOCC2)N2CCOCC2)N2CCOCC2)cc1 | inactive: 96.8% |
